In patent US7341859B2, “ADH from Rhodococcus erythropolis” (Degussa AG, priority 2002, dated 2008):

System: NADH
Assay: purified protein, by the assay type
Details: other: reduction reaction

**Q.** With RE-ADH (Rhodococcus erythropolis) as the substance, how does the Km read?
**A.** Its Km is 25 µM.
